Biological target: hMAT2A (Homo sapiens (Human), UniProt P31153)
Assay: Phosphate Sensor Fluorescence Assay (MAT2A enzyme inhibition)
Assay type: biochemical
Settings: read-out: IC50 um, L-methionine and ATP 500 uM, class symbols

Chains of the proteins cited; added tags and fusions are not shown.
UniProt P31153, whole entry: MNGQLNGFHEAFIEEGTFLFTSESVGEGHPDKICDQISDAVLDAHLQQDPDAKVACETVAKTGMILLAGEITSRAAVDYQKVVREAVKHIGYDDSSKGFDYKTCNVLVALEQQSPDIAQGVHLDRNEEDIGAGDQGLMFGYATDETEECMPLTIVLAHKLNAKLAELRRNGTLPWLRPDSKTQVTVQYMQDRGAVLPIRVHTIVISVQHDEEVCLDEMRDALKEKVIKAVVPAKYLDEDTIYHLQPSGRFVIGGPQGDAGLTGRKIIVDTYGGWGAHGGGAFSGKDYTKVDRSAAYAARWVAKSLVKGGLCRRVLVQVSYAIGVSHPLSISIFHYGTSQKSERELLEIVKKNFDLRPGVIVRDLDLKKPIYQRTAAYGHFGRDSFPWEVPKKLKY

IC50: 1 to 10 µM
SMILES: CC(CO)Nc1nc(=O)n(-c2ccccc2Cl)c2nc(C(F)(F)F)ccc12 (single isomer, unassigned) [one of 273 and 292]
